Literature values in US20020198215A1, “Terazosin transdermal device and methods” (priority 2000, published 2002).

Settings: cited from earlier work

For `COc1cc2nc(N3CCN(C(=O)C4CCCO4)CC3)nc(N)c2cc1OC` (stereo not drawn) [terazosin, Terazosin], the “excretion in the feces (unchanged drug and metabolites)” value (in vivo) is given as 60%, the “excretion in the urine (unchanged drug and metabolites)” value (in vivo) is given as 40% and the “absorption following oral administration” value (oral administration) is given as “almost completely absorbed”.
